The record followed here is patent US20100132066A1, “AGROBACTERIUM-MEDIATED METHOD FOR PRODUCING TRANSFORMED PLANT WITHOUT SELECTION STEP” (JAPAN TOBACCO INC., priority 2007, published 2010).

The subject of the assay is Immature embryos (variety: A188). Kind of assay: Effect of dicamba and 2,4-D in coculture medium on regeneration (Example 2, FIG. 3). Format: cell-based, Maize. As to conditions: coculture medium with this auxin alone (1.5 mg/l), selection step eliminated, LBA4404 (U0009B).

`O=C(O)COc1ccc(Cl)cc1Cl` [2,4-D, 2,4-dichlorophenoxyacetic acid] yielded a regeneration rate of 15.8%.
